Measurements taken from patent publication US20240050434A1, “HORMAD1 THERAPEUTICS” (Royal Cancer Hospital, priority 2020, published 2024).
“Also recorded” adds a separate entry of the source.

Assays:
[1] = system: SUM159 cells expressing a doxycycline-inducible HORMAD1 construct; assay: Clonogenic survival assay (SRB) in SUM159 cells with doxycycline-inducible HORMAD1; type: cell-based; conditions: increasing doses, 10-14 days, normalised to vehicle
Method: (§1) Cell confluence was analysed every 6 hours for 10 days, using incucyte software. Data are from 3 biological replicates and analysed using a two-way ANOVA. […] RPE1 cells expressing a doxycycline-inducible HORMAD1 expression construct were exposed to doxycycline or vehicle (H2O) and were exposed to 20 nM of the Aurora B inhibitor, AZD1152-HQPA. Cell confluence was analysed every 6 hours for 10 days, using incucyte software. Data are from 3 biological replicates and analysed using a two-way ANOVA. […] 7-10 days post drugging, cells were fixed, stained with SRB, and colonies were counted using Cell Profiler. […] 10 days post drugging, cells were fixed, stained with SRB, and colonies were counted using Cell Profiler. […] 7-10 days post drugging, cells were fixed, stained with SRB, and colonies were counted using Cell Profiler. […] 10 days post drugging, cells were fixed, stained with SRB, and colonies were counted using Cell Profiler.
RPE1 and SUM159 cells expressing a doxycycline-inducible HORMAD1 construct were treated with doxycycline or vehicle. […] Surviving fractions were calculated (normalised to vehicle treated cells). […] Data from 3 replicas was analysed using 2-way ANOVA. […] Surviving fractions were calculated (normalised to vehicle treated cells). Data from 4 replicas was analysed using 2-way ANOVA. […]

[2] = system: RPE1 cells expressing a doxycycline-inducible HORMAD1 construct; assay: Incucyte time-lapse confluence/proliferation in RPE1 cells with doxycycline-inducible HORMAD1; type: cell-based; conditions: incucyte confluence; 200 nM BOS172722 or 20 nM AZD1152-HQPA 10 days; 3 μM BAY-1816032 14 days
Method: as §1
(§2) RPE1 cells were reverse transfected with BUB1 or control siRNA particles for 3 days. Cell lysates were collected, and analysed by western blotting using anti-BUB1 and anti-β-ACTIN antibodies. […] 5 days post transfection, cellular viability was estimated using cell titer glo reagent and surviving fractions were calculated relative to DMSO treated cells. […] Cells were fixed, stained with SRB, and cellular viability was estimated using SRB absorbance readings. […]

[3] = system: HORMAD1 positive organoid KCL625; assay: HORMAD1 positive organoid KCL625 viability by cell titer glo; type: cell-based; conditions: indicated doses, 10 days
Method: . Organoids were treated with the indicated doses of drug for 10 days and cell viability assessed by cell titer glo. Data is presented as mean and standard deviation of triplicate wells;

[4] = system: RPE1 cells expressing a doxycycline-inducible HORMAD1 construct; assay: Clonogenic survival assay (SRB) in RPE1 cells with doxycycline-inducible HORMAD1; type: cell-based; conditions: increasing doses, 7-14 days, normalised to vehicle
Method: as §1, §2

[5] = system: RPE1 cells expressing a doxycycline-inducible HORMAD1 expression construct; conditions: 200 nM, 3 days post drugging
Method: (§3) A. Diagram of experimental outline. Cells were exposed to doxycycline for 3 days, arrested in mitosis using 300 nM nocodazole or 100 nM Paclitaxel. Mitotic cells were filmed every 4 minutes for 1200 minutes, and the time cells remained arrested in mitosis before exiting via mitotic slippage was assessed. […] RPE1 cells expressing a doxycycline-inducible HORMAD1 cDNA expression construct were exposed to doxycycline or vehicle (H2O) for three days at which point cells were exposed to 300 nM nocodazole and filmed every 4 minutes using time-lapse microscopy. The time individual cells remained arrested in mitosis was quantified and presented as the % of cells arrested in mitosis at each time point. Data reflects a total of 125 cells from 3 biological repeats and was analysed using Mantel-Cox test. C. […] The time individual cells remained arrested in mitosis was quantified and presented as the % of cells arrested in mitosis at each time point. Data reflects a total of 125 cells from 3 biological repeats and was analysed using Mantel-Cox test. […] H1299 cells expressing two individual, doxycycline-inducible, shRNA particles targeting HORMAD1 as well as a non-targeting control were grown for three days in the presence of doxycycline at which point cell lysates were generated and analysed by SDS-PAGE and western blotting using anti-HORMAD1 and anti-β-ACTIN antibodies. […]

[6] = system: RPE1 cells expressing a doxycycline-inducible HORMAD1 expression construct; assay: Mitotic slippage by time-lapse microscopy in nocodazole-arrested RPE1 cells; type: cell-based; conditions: 300 nM nocodazole arrest, then 100-200 nM reversine, 50 nM BOS172722 or AZD1152-HQPA
Method: as §3

CCOc1cc(-c2nncn2C)ccc1Nc1ncc2cc(C)nc(NCC(C)(C)C)c2n1 [BOS172722, N2-(2-Ethoxy-4-(4-methyl-4 H-1,2,4-triazol-3-yl)phenyl)-6-methyl-N8-neopentylpyrido[3,4-d]pyrimidine-2,8-diamine] was tested, and the “clonogenic survival / sensitivity of HORMAD1 expressing versus HORMAD1-negative SUM159 cells” value [1] was “more effectively inhibited; also recorded: reduced clonogenic survival; also recorded: increased MPSI inhibitor sensitivity”, the “cellular growth / fitness of HORMAD1 expressing RPE1 cells versus vehicle-induced cells under drug” value [2] was “marked decrease in cellular growth; also recorded: decreased cellular fitness” and the “sensitivity (surviving fraction versus DMSO) of organoid KCL625” value [3] was “reduced surviving fraction; also recorded: high sensitivity”. The “clonogenic survival / sensitivity of HORMAD1 expressing versus HORMAD1-negative RPE1 cells” value [4] was “more effectively inhibited; also recorded: reduced clonogenic survival; also recorded: increased MPSI inhibitor sensitivity”, the “cells with centromere containing micronuclei, HORMAD1 expressing RPE1 cells” value [5] was “increased centromere containing micronuclei” and the “mitotic slippage / mitotic exit in HORMAD1 induced RPE1 cells” value [6] was “Very similar results; also recorded: premature mitotic slippage”.
